One assay addresses T1, human GLP-1 receptor (Homo sapiens, UniProt P43220).
T1 construct: expressed in transfected cells; host or cells: HEK-293
The assay can be described thus: cAMP response (HTRF) of HEK-293 cells stably expressing human GLP-1 receptor. The following applies: read-out: EC50 hGLP-1R. The format is cell-based. (In general: In TR-FRET formats the signal depends on donor and acceptor labels being close together.)

Amino acid sequences for entries named in this document (tags omitted). Residues count along the entry.
UniProt P43220, 24-463: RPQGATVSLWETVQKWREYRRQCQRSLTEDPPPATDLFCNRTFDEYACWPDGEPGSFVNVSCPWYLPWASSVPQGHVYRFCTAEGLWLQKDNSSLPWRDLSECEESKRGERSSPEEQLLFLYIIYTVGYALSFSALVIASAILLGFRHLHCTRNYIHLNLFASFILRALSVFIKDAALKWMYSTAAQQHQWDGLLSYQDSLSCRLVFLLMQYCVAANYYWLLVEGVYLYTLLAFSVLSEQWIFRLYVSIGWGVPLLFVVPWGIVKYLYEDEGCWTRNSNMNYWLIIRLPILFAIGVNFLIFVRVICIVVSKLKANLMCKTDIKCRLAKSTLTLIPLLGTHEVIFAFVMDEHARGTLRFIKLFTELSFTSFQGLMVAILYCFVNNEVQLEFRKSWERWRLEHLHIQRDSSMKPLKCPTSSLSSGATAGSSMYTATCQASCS
UniProt P47871, 26-477: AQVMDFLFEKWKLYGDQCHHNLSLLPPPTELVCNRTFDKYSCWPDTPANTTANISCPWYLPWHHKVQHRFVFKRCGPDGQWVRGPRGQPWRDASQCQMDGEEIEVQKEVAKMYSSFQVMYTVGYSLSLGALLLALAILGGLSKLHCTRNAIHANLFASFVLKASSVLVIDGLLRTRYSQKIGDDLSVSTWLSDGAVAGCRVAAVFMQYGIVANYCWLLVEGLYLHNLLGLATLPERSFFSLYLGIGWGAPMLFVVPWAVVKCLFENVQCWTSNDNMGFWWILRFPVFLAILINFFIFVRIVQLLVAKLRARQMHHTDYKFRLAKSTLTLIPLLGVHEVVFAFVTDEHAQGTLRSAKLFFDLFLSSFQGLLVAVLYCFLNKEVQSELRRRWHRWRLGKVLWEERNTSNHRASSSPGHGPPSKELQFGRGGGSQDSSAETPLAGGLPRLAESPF

A further assay concerns the target T2, human glucagon receptor (Homo sapiens, UniProt P47871).
T2 construct: expressed in transfected cells; host or cells: HEK-293
The assay can be described thus: cAMP response (HTRF) of HEK-293 cells stably expressing human glucagon receptor. Conditions: read-out: EC50 hGlucagon-R. The format is cell-based.

[1] abbreviates: Table 8, comparison testing of position 14.

Each structure is given as a SMILES string. Like-named read-outs stand apart in the source and are kept apart here.

Regarding `CCCCCCCCCCCCCCCC(=O)N[C@@H](CCC(=O)NCCCC[C@H](NC(=O)[C@H](CCC(N)=O)NC(=O)[C@H](CCCCN)NC(=O)[C@H](CO)NC(=O)[C@H](CC(C)C)NC(=O)[C@H](CC(=O)O)NC(=O)[C@H](CO)NC(=O)[C@@H](NC(=O)[C@H](Cc1ccccc1)NC(=O)[C@@H](NC(=O)CNC(=O)[C@H](CCC(N)=O)NC(=O)[C@@H](CO)NC(=O)[C@@H](N)Cc1c[nH]cn1)[C@@H](C)O)[C@@H](C)O)C(=O)N[C@@H](CC(=O)O)C(=O)N[C@@H](CO)C(=O)N[C@@H](CCCCN)C(=O)N[C@@H](C)C(=O)N[C@@H](C)C(=O)N[C@@H](CCC(N)=O)C(=O)N[C@@H](CC(=O)O)C(=O)N[C@@H](Cc1ccccc1)C(=O)N[C@H](C(=O)N[C@@H](CCC(=O)O)C(=O)N[C@@H](Cc1c[nH]c2ccccc12)C(=O)N[C@@H](CC(C)C)C(=O)N[C@@H](CCCCN)C(=O)N[C@@H](C)C(=O)NCC(=O)NCC(=O)N1CCC[C@H]1C(=O)N[C@@H](CO)C(=O)N[C@@H](CO)C(=O)NCC(=O)N[C@@H](C)C(=O)N1CCC[C@H]1C(=O)N1CCC[C@H]1C(=O)N1CCC[C@H]1C(=O)N[C@@H](CO)C(N)=O)[C@@H](C)CC)C(=O)O` [compound 30], the EC50 – broadly, the concentration giving half of the maximal effect – at human GLP-1 receptor (Table 5, cAMP, HEK-293) came to 3.2 pM; on human glucagon receptor (Table 5, cAMP, HEK-293), 7 pM; on human glucagon receptor (setting [1]), 7 pM.
As for `CCCCCCCCCCCCCCCC(=O)N[C@@H](CCC(=O)NCCCC[C@H](NC(=O)[C@H](CCC(N)=O)NC(=O)[C@H](CCCCN)NC(=O)[C@H](CO)NC(=O)[C@H](CC(C)C)NC(=O)[C@H](CC(=O)O)NC(=O)[C@H](CO)NC(=O)[C@@H](NC(=O)[C@H](Cc1ccccc1)NC(=O)[C@@H](NC(=O)CNC(=O)[C@H](CCC(N)=O)NC(=O)[C@@H](CO)NC(=O)[C@@H](N)Cc1c[nH]cn1)[C@@H](C)O)[C@@H](C)O)C(=O)N[C@@H](CC(=O)O)C(=O)N[C@@H](CO)C(=O)N[C@@H](CCC(N)=O)C(=O)N[C@@H](C)C(=O)N[C@@H](C)C(=O)N[C@@H](CCC(N)=O)C(=O)N[C@@H](CC(=O)O)C(=O)N[C@@H](Cc1ccccc1)C(=O)N[C@H](C(=O)N[C@@H](CCC(=O)O)C(=O)N[C@@H](Cc1c[nH]c2ccccc12)C(=O)N[C@@H](CC(C)C)C(=O)N[C@@H](CCCCN)C(=O)N[C@@H](C)C(=O)NCC(=O)NCC(=O)N1CCC[C@H]1C(=O)N[C@@H](CO)C(=O)N[C@@H](CO)C(=O)NCC(=O)N[C@@H](C)C(=O)N1CCC[C@H]1C(=O)N1CCC[C@H]1C(=O)N1CCC[C@H]1C(=O)N[C@@H](CO)C(N)=O)[C@@H](C)CC)C(=O)O` [compound 39], the EC50 came out at 2.7 pM on human GLP-1 receptor (Table 5, cAMP, HEK-293) and 7.6 pM on human glucagon receptor (Table 5, cAMP, HEK-293).
Consider `CCCCCCCCCCCCCCCCCC(=O)N[C@@H](CCC(=O)NCCCC[C@H](NC(=O)[C@H](CCC(N)=O)NC(=O)[C@H](CCCCN)NC(=O)[C@H](CO)NC(=O)[C@H](CC(C)C)NC(=O)[C@H](CC(=O)O)NC(=O)[C@H](CO)NC(=O)[C@@H](NC(=O)[C@H](Cc1ccccc1)NC(=O)[C@@H](NC(=O)CNC(=O)[C@H](CCC(N)=O)NC(=O)C(C)(C)NC(=O)[C@@H](N)Cc1c[nH]cn1)[C@@H](C)O)[C@@H](C)O)C(=O)N[C@@H](CCC(=O)O)C(=O)N[C@@H](CO)C(=O)N[C@@H](CCC(N)=O)C(=O)N[C@@H](C)C(=O)N[C@@H](C)C(=O)N[C@@H](CCC(N)=O)C(=O)N[C@@H](CC(=O)O)C(=O)N[C@@H](Cc1ccccc1)C(=O)N[C@H](C(=O)N[C@@H](CCC(=O)O)C(=O)N[C@@H](Cc1c[nH]c2ccccc12)C(=O)N[C@@H](CC(C)C)C(=O)N[C@@H](CCCCN)C(=O)N[C@@H](C)C(=O)NCC(=O)NCC(=O)N1CCC[C@H]1C(=O)N[C@@H](CO)C(=O)N[C@@H](CO)C(=O)NCC(=O)N[C@@H](C)C(=O)N1CCC[C@H]1C(=O)N1CCC[C@H]1C(=O)N1CCC[C@H]1C(=O)N[C@@H](CO)C(N)=O)[C@@H](C)CC)C(=O)O` [compound 41], for which the EC50 on human GLP-1 receptor (Table 5, cAMP, HEK-293) stood at 3.3 pM; on human glucagon receptor (Table 5, cAMP, HEK-293), 20.7 pM.
For `CCCCCCCCCCCCCCCC(=O)N[C@@H](CCC(=O)NCCCC[C@H](NC(=O)[C@H](CCC(N)=O)NC(=O)[C@H](CCCCN)NC(=O)[C@H](CO)NC(=O)[C@H](CC(C)C)NC(=O)[C@H](CC(=O)O)NC(=O)[C@H](CO)NC(=O)[C@@H](NC(=O)[C@H](Cc1ccccc1)NC(=O)[C@@H](NC(=O)CNC(=O)[C@H](CCC(N)=O)NC(=O)[C@@H](CO)NC(=O)[C@@H](N)Cc1c[nH]cn1)[C@@H](C)O)[C@@H](C)O)C(=O)N[C@@H](CC(=O)O)C(=O)N[C@@H](CO)C(=O)N[C@@H](CCCNC(=N)N)C(=O)N[C@@H](CCCNC(=N)N)C(=O)N[C@@H](C)C(=O)N[C@@H](CCC(N)=O)C(=O)N[C@@H](CC(=O)O)C(=O)N[C@@H](Cc1ccccc1)C(=O)N[C@H](C(=O)N[C@@H](CCC(=O)O)C(=O)N[C@@H](Cc1c[nH]c2ccccc12)C(=O)N[C@@H](CC(C)C)C(=O)N[C@@H](CCCCN)C(=O)N[C@@H](CCCCN)C(=O)NCC(=O)NCC(=O)N1CCC[C@H]1C(=O)N[C@@H](CO)C(=O)N[C@@H](CO)C(=O)NCC(=O)N[C@@H](C)C(=O)N1CCC[C@H]1C(=O)N1CCC[C@H]1C(=O)N1CCC[C@H]1C(=O)N[C@@H](CO)C(N)=O)[C@@H](C)CC)C(=O)O` [compound 84] the same measures were 8.1 pM and 4.3 pM.
Turning to `CCCCCCCCCCCCCCCC(=O)N[C@@H](CCC(=O)NCCCC[C@H](NC(=O)[C@H](CCC(N)=O)NC(=O)[C@H](CCCCN)NC(=O)[C@H](CO)NC(=O)[C@H](CC(C)C)NC(=O)[C@H](CC(=O)O)NC(=O)[C@H](CO)NC(=O)[C@@H](NC(=O)[C@H](Cc1ccccc1)NC(=O)[C@@H](NC(=O)CNC(=O)[C@H](CCC(N)=O)NC(=O)[C@@H](CO)NC(=O)[C@@H](N)Cc1c[nH]cn1)[C@@H](C)O)[C@@H](C)O)C(=O)N[C@@H](CC(=O)O)C(=O)N[C@@H](CO)C(=O)N[C@@H](CCC(N)=O)C(=O)N[C@@H](C)C(=O)N[C@@H](C)C(=O)N[C@@H](CCC(N)=O)C(=O)N[C@@H](CC(=O)O)C(=O)N[C@@H](Cc1ccccc1)C(=O)N[C@H](C(=O)N[C@@H](CCC(=O)O)C(=O)N[C@@H](Cc1c[nH]c2ccccc12)C(=O)N[C@@H](CC(C)C)C(=O)N[C@@H](CCCCN)C(=O)N[C@@H](CCCNC(=N)N)C(=O)NCC(=O)NCC(=O)N1CCC[C@H]1C(=O)N[C@@H](CO)C(=O)N[C@@H](CO)C(=O)NCC(=O)N[C@@H](C)C(=O)N1CCC[C@H]1C(=O)N1CCC[C@H]1C(=O)N1CCC[C@H]1C(=O)N[C@@H](CO)C(N)=O)[C@@H](C)CC)C(=O)O` [compound 123], the EC50 was 2.6 pM at human GLP-1 receptor (Table 5, cAMP, HEK-293) and 9.7 pM at human glucagon receptor (Table 5, cAMP, HEK-293).
For the molecule `CCCCCCCCCCCCCCCCCC(=O)N[C@@H](CCC(=O)NCCCC[C@H](NC(=O)[C@H](CCC(N)=O)NC(=O)[C@H](CCCCN)NC(=O)[C@H](CO)NC(=O)[C@H](CC(C)C)NC(=O)[C@H](CC(=O)O)NC(=O)[C@H](CO)NC(=O)[C@@H](NC(=O)[C@H](Cc1ccccc1)NC(=O)[C@@H](NC(=O)CNC(=O)[C@H](CCC(N)=O)NC(=O)C(C)(C)NC(=O)[C@@H](N)Cc1c[nH]cn1)[C@@H](C)O)[C@@H](C)O)C(=O)N[C@@H](CCC(=O)O)C(=O)N[C@@H](CO)C(=O)N[C@@H](CCCNC(=N)N)C(=O)N[C@@H](CCCNC(=N)N)C(=O)N[C@@H](C)C(=O)N[C@@H](CCC(N)=O)C(=O)N[C@@H](CC(C)C)C(=O)N[C@@H](Cc1ccccc1)C(=O)N[C@H](C(=O)N[C@@H](CCC(=O)O)C(=O)N[C@@H](Cc1c[nH]c2ccccc12)C(=O)N[C@@H](CC(C)C)C(=O)N[C@@H](CCCCN)C(=O)N[C@@H](C)C(=O)N[C@H](C)C(=O)NCC(=O)N1CCC[C@H]1C(=O)N[C@@H](CO)C(=O)N[C@@H](CO)C(=O)NCC(=O)N[C@@H](C)C(=O)N1CCC[C@H]1C(=O)N1CCC[C@H]1C(=O)N1CCC[C@H]1C(=O)N[C@@H](CO)C(N)=O)[C@@H](C)CC)C(=O)O` [compound 205], the EC50 on human GLP-1 receptor (Table 5, cAMP, HEK-293) is 12.3 pM; at human glucagon receptor (Table 5, cAMP, HEK-293), 5.2 pM.
For `CCCCCCCCCCCCCCCCCC(=O)N[C@@H](CCC(=O)NCCCC[C@H](NC(=O)[C@H](CCC(N)=O)NC(=O)[C@H](CCCCN)NC(=O)[C@H](CO)NC(=O)[C@H](CC(C)C)NC(=O)[C@H](CC(=O)O)NC(=O)[C@H](CO)NC(=O)[C@@H](NC(=O)[C@H](Cc1ccccc1)NC(=O)[C@@H](NC(=O)CNC(=O)[C@H](CCC(N)=O)NC(=O)C(C)(C)NC(=O)[C@@H](N)Cc1c[nH]cn1)[C@@H](C)O)[C@@H](C)O)C(=O)N[C@@H](CC(=O)O)C(=O)N[C@@H](CCC(=O)O)C(=O)N[C@@H](CCC(=O)O)C(=O)N[C@@H](C)C(=O)N[C@@H](C)C(=O)N[C@@H](CCCNC(=N)N)C(=O)N[C@@H](CC(C)C)C(=O)N[C@@H](Cc1ccccc1)C(=O)N[C@H](C(=O)N[C@@H](CCC(=O)O)C(=O)N[C@@H](Cc1c[nH]c2ccccc12)C(=O)N[C@@H](CC(C)C)C(=O)N[C@@H](CCCCN)C(=O)N[C@@H](C)C(=O)NCC(=O)NCC(=O)N1CCC[C@H]1C(=O)N[C@@H](CO)C(=O)N[C@@H](CO)C(=O)NCC(=O)N[C@@H](C)C(=O)N1CCC[C@H]1C(=O)N1CCC[C@H]1C(=O)N1CCC[C@H]1C(=O)N[C@@H](CO)C(N)=O)[C@@H](C)CC)C(=O)O` [compound 214], the EC50 on human GLP-1 receptor (Table 5, cAMP, HEK-293) is 4.2 pM; on human glucagon receptor (Table 5, cAMP, HEK-293), 16 pM.
Regarding `CC[C@H](C)[C@H](NC(=O)[C@H](Cc1ccccc1)NC(=O)[C@H](CC(=O)O)NC(=O)[C@H](CCC(N)=O)NC(=O)[C@H](C)NC(=O)[C@H](CCCNC(=N)N)NC(=O)[C@H](CCCNC(=N)N)NC(=O)[C@H](CO)NC(=O)[C@H](CC(=O)O)NC(=O)[C@H](CCSC)NC(=O)[C@H](CCC(N)=O)NC(=O)[C@H](CCCCN)NC(=O)[C@H](CO)NC(=O)[C@H](CC(C)C)NC(=O)[C@H](CC(=O)O)NC(=O)[C@H](CO)NC(=O)[C@@H](NC(=O)[C@H](Cc1ccccc1)NC(=O)[C@@H](NC(=O)CNC(=O)[C@H](CCC(N)=O)NC(=O)[C@@H](CO)NC(=O)[C@@H](N)Cc1c[nH]cn1)[C@@H](C)O)[C@@H](C)O)C(=O)N[C@@H](CCC(=O)O)C(=O)N[C@@H](Cc1c[nH]c2ccccc12)C(=O)N[C@@H](CC(C)C)C(=O)N[C@@H](CCCCN)C(=O)NC(C)(C)C(=O)NCC(=O)NCC(=O)N1CCC[C@H]1C(=O)N[C@@H](CO)C(=O)N[C@@H](CO)C(=O)NCC(=O)N[C@@H](C)C(=O)N1CCC[C@H]1C(=O)N1CCC[C@H]1C(=O)N1CCC[C@H]1C(=O)N[C@@H](CO)C(N)=O` [compound 187], the EC50 was found to be 152 pM on human GLP-1 receptor (setting [1]) and 195 pM on human glucagon receptor (setting [1]).
